Test results: US20170009272A1, “IN-SILICO BASED TECHNIQUES IN THE IDENTIFICATION OF POTENT ß-GLUCORONIDASE INHIBITORS” (priority 2015, published 2017)

Chains of the proteins cited; added tags and fusions are not shown.
UniProt P05804, whole entry: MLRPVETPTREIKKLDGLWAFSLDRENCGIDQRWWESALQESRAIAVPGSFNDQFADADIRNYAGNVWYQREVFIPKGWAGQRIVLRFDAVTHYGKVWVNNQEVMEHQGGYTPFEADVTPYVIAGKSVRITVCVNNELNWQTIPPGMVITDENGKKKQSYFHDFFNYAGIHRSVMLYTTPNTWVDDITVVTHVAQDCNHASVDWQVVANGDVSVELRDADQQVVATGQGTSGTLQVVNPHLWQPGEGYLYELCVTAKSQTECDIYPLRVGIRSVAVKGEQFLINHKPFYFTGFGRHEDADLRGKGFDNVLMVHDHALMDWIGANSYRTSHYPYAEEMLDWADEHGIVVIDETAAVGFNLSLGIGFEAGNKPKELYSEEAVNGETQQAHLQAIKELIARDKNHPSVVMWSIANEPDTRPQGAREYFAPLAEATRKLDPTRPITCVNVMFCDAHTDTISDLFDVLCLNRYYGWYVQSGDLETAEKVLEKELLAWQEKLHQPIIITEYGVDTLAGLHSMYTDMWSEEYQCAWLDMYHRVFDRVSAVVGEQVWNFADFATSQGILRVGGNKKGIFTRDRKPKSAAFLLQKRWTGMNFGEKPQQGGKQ

How the values were obtained:
β-glucoronidase = β-glucoronidase (Escherichia coli, UniProt P05804); experiment: β-Glucuronidase inhibition assay (spectrophotometric, p-nitrophenyl-β-D-glucuronide substrate)
Method: β-Glucuronidase inhibition assay protocol: Inhibitory activity of β-Glucuronidase was determined with the help of spectrophotometric method by measuring the absorbance at 405 nm of p-nitro phenol formed from the substrate (p-nitro phenyl-β-D-glucuronide, N1627-250 mg, Sigma Aldrich). The total reaction volume was 250 μL. The compound dissolved in DMSO (100%), which becomes 2% in the ultimate assay (250 μL) and the similar conditions were used for standard (D-saccharin acid 1,4-lactone, Sigma Aldrich). The reaction mixture contained 185 μL of 0.1 M acetate buffer, 5 μL of test compound solution, 10 μL of (1U) enzyme solution (G7396-25KU, Sigma Aldrich) was incubated at 37° C. for 30 min. The plates were read on a multiplate reader (SpectraMax plus 384) at 405 nm after the addition of 50 μL of 0.4 mM p-nitrophenyl-β-D-glucuronide. All assays were performed in triplicate. IC50 Values were calculated by using EZ-Fit software (Perrella Scientific Inc., Amherst, Mass., U.S.A.). These values are the mean of three independent readings.

[1] = test system: 3T3 (mouse fibroblast) cells
Method: Cytotoxicity assay Protocol: Cytotoxic activity of compounds was evaluated in 96-well flat-bottomed micro plates by using the standard MTT (3-[4,5-dimethylthiazole-2-yl]-2,5-diphenyl-tetrazolium bromide) colorimetric assay (15). For this purpose, 3T3 (mouse fibroblast) cells were cultured in Dulbecco's Modified Eagle Medium, supplemented with 5% of fetal bovine serum (FBS), 100 IU/ml of penicillin and 100 μg/ml of streptomycin in 75 cm^2 flasks, and kept in 5% CO2 incubator at 37° C. Exponentially growing cells were harvested, counted with haemocytometer and diluted with a particular medium. Cell culture with the concentration of 5×10^4 cells/ml was prepared and introduced (100 μL/well) into 96-well plates.
After overnight incubation, medium was removed and 200 μL of fresh medium was added with different concentrations of compounds (1-30 μM). After 48 hrs, 200 ptL MTT (0.5 mg/ml) was added to each well and incubated further for 4 hrs. Subsequently, 100 μLof DMSO was added to each well. The extent of MTT reduction to formazan within cells was calculated by measuring the absorbance at 540 nm, using a micro plate reader (Spectra Max plus, Molecular Devices, Calif., USA). The cytotoxicity was recorded as concentration causing 50% growth inhibition (IC50) for 3T3 cells. The percent inhibition was calculated by using the following formula […]

For `Oc1ccc(C(c2c[nH]c3ccc(Br)cc23)c2c[nH]c3ccc(Br)cc23)c(O)c1`, the IC50 (β-glucoronidase; 37° C., 30 min incubation, absorbance at 405 nm, mean of three readings) was 1370 nM, the “% inhibition” value (β-glucoronidase; test concentration not given) was 99.2% and the IC50 [1] was 10.5 µM.
